Target: Translocator protein (Homo sapiens, UniProt P30536)

By UniProt entry, the sequences of proteins in these tests, tags left out.
UniProt P30536, whole entry: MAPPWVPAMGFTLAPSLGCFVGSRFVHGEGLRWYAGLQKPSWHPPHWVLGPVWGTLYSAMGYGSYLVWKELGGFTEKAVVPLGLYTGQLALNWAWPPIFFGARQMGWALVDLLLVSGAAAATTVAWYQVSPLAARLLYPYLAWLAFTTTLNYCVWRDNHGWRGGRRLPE

IC50: 2.5 nM | Ki: 2.3 nM
Compound: CCC(C)N(C)C(=O)c1cc2ccccc2c(-c2ccccc2Cl)n1 (configuration not stated) [PK-11195]
